# Values quoted from earlier work, collected in PubChem BioAssay AID1811 (Shanghai Institute of Organic Chemistry, 2009).
# The other results are listed elsewhere or left out. Activity calls are given as the source filed them. Unless stated, no cut-off for active and inactive is given here.
# Test system: acetyl-coenzyme a carboxylase
# Assay: PubChem AID 1811
# Settings: PDB complex binding affinities from literature
compound,measurement,value
CO[C@H]1CCCC[C@@H](c2ccccc2)OC(=O)[C@@H](C)[C@@]2(O)O[C@H]([C@@H](C)[C@H](O)[C@H]2OC)[C@@H](C)/C=C/[C@H]1OC,outcome,active
